System: human skin tissue
Experiment: Penetration rate of AI compound in AI-helper composition through human skin in vitro, modified Franz cells
Conditions: 25 °C; for Skin penetration rate of Al compound: Al compound 0.5% w/v

## Vitamin D
2-(Diethylamino)ethyl 2-(4-isobutylphenyl)propionate hydrochloride 6% w/v, water
  Skin penetration rate of Al compound: 13.179 ± 2.215 μg/cm^2/h
D-Phenylalanine isopropyl ester hydrochloride 6% w/v, water
  Skin penetration rate of Al compound: 15.478 ± 2.126 μg/cm^2/h
Dialkylaminoalkyl 2-(4-isobutylphenyl)propionate: None
  Skin penetration rate of Al compound: 0.72 ± 0.063 μg/cm^2/h
L-Phenylalanine isopropyl ester hydrochloride 6% w/v, water
  Skin penetration rate of Al compound: 15.327 ± 2.032 μg/cm^2/h
Phenylalanine ester: None
  Skin penetration rate of Al compound: 0.072 ± 0.033 μg/cm^2/h
No isoleucine ester (None), AI compound 0.5 % w/v in water
  Skin penetration rate of AI compound: 0.078 ± 0.037 μg/cm^2/h
No leucine ester (None), AI compound 0.5 % w/v in water
  Skin penetration rate of AI compound: 0.082 ± 0.053 μg/cm^2/h
No tryptophan ester (None), AI compound 0.5 % w/v in water
  Skin penetration rate of AI compound: 0.102 ± 0.113 μg/cm^2/h
With D-isoleucine isopropyl ester hydrochloride 6 % w/v in water, AI compound 0.5 % w/v
  Skin penetration rate of AI compound: 13.315 ± 2.126 μg/cm^2/h
With D-leucine isopropyl ester hydrochloride 6 % w/v in water, AI compound 0.5 % w/v
  Skin penetration rate of AI compound: 13.139 ± 2.026 μg/cm^2/h
With D-tryptophan isopropyl ester hydrochloride 6 % w/v in water, AI compound 0.5 % w/v
  Skin penetration rate of AI compound: 15.138 ± 2.179 μg/cm^2/h
With L-isoleucine isopropyl ester hydrochloride 6 % w/v in water, AI compound 0.5 % w/v
  Skin penetration rate of AI compound: 13.425 ± 2.132 μg/cm^2/h
With L-leucine isopropyl ester hydrochloride 6 % w/v in water, AI compound 0.5 % w/v
  Skin penetration rate of AI compound: 13.155 ± 2.112 μg/cm^2/h
With L-tryptophan isopropyl ester hydrochloride 6 % w/v in water, AI compound 0.5 % w/v
  Skin penetration rate of AI compound: 16.345 ± 2.912 μg/cm^2/h

— patent US9962369B2, “Methods and compositions for transdermal delivery” (SPRAYABLE HOLDINGS, INC., priority 2014, dated 2018)
